1 compound from ChEMBL document CHEMBL5338787, “Discovery of Novel Bruton's Tyrosine Kinase PROTACs with Enhanced Selectivity and Cellular Efficacy” (J Med Chem, 2023) can be followed below.

The source made the active and inactive calls. No cut-off for these calls is given here.

Holding throughout (conditions): dose 0.15-3000 nM
In assay [1] the target is T1, Tyrosine-protein kinase BTK (Homo sapiens, UniProt Q06187). Briefly: Inhibition of BCR signalling in human MINO cells assessed as downregulation of total protein level PLCgamma2 of measured at 0.15 to 3000 nM after 48 hrs stimulated with goat F(ab') 2 anti-human IgM for 10 mins before harvesting measured by Western blot analysis. Background: In western blotting, separated proteins are transferred to a membrane and probed.

The target of assay [2] is T1, Tyrosine-protein kinase BTK. The assay can be described thus: Inhibition of BCR signalling in human TMD8 cells assessed as downregulation of phosphorylated BTK measured at 0.15 to 3000 nM after 48 hrs stimulated with goat F(ab') 2 anti-human IgM for 10 mins before harvesting measured by Western blot analysis.
Assay [3] shares this target. The assay can be described thus: Inhibition of BCR signalling in human MINO cells assessed as downregulation of total protein level NF-KappaB of measured at 0.15 to 3000 nM after 48 hrs stimulated with goat F(ab') 2 anti-human IgM for 10 mins before harvesting measured by Western blot analysis.
For assay [4] the target is unchanged. The assay can be described thus: Inhibition of BCR signalling in human TMD8 cells assessed as downregulation of total protein level PLCgamma2 of measured at 0.15 to 3000 nM after 48 hrs stimulated with goat F(ab') 2 anti-human IgM for 10 mins before harvesting measured by Western blot analysis.
Assay [5] has the same target. Briefly: Inhibition of BCR signalling in human TMD8 cells assessed as downregulation of total protein level AKT of measured at 0.15 to 3000 nM after 48 hrs stimulated with goat F(ab') 2 anti-human IgM for 10 mins before harvesting measured by Western blot analysis.
Assay [6] has the same target. Briefly: Inhibition of BCR signalling in human MINO cells assessed as activation of ERK of measured at 0.15 to 3000 nM after 48 hrs stimulated with goat F(ab') 2 anti-human IgM for 10 mins before harvesting measured by Western blot analysis.
Assay [7] shares this target. Briefly: Inhibition of BCR signalling in human TMD8 cells assessed as downregulation of phosphorylated PLCgamma2 measured at 0.15 to 3000 nM after 48 hrs stimulated with goat F(ab') 2 anti-human IgM for 10 mins before harvesting measured by Western blot analysis.
Assay [8] shares this target. The assay can be described thus: Inhibition of BCR signalling in human TMD8 cells assessed as downregulation of phosphorylated NF-kappaB measured at 0.15 to 3000 nM after 48 hrs stimulated with goat F(ab') 2 anti-human IgM for 10 mins before harvesting measured by Western blot analysis.
Assay [9] shares this target. Briefly: Inhibition of BCR signalling in human MINO cells assessed as downregulation of total protein level AKT of measured at 0.15 to 3000 nM after 48 hrs stimulated with goat F(ab') 2 anti-human IgM for 10 mins before harvesting measured by Western blot analysis.
Assay [10] has the same target. Briefly: Inhibition of BCR signalling in human TMD8 cells assessed as downregulation of total protein level NF-KappaB of measured at 0.15 to 3000 nM after 48 hrs stimulated with goat F(ab') 2 anti-human IgM for 10 mins before harvesting measured by Western blot analysis.
The target is the same in assay [11]. The assay can be described thus: Inhibition of BCR signalling in human MINO cells assessed as downregulation of phosphorylated AKT measured at 0.15 to 3000 nM after 48 hrs stimulated with goat F(ab') 2 anti-human IgM for 10 mins before harvesting measured by Western blot analysis.
Assay [12] has the same target. The assay can be described thus: Inhibition of BCR signalling in human TMD8 cells assessed as downregulation of phosphorylated AKT measured at 0.15 to 3000 nM after 48 hrs stimulated with goat F(ab') 2 anti-human IgM for 10 mins before harvesting measured by Western blot analysis.
The target is the same in assay [13]. Briefly: Inhibition of BCR signalling in human MINO cells assessed as downregulation of phosphorylated PLCgamma2 measured at 0.15 to 3000 nM after 48 hrs stimulated with goat F(ab') 2 anti-human IgM for 10 mins before harvesting measured by Western blot analysis.
The target is the same in assay [14]. The assay can be described thus: Inhibition of BCR signalling in human TMD8 cells assessed as activation of ERK of measured at 0.15 to 3000 nM after 48 hrs stimulated with goat F(ab') 2 anti-human IgM for 10 mins before harvesting measured by Western blot analysis.
Assay [15] shares this target. Briefly: Inhibition of BCR signalling in human MINO cells assessed as downregulation of phosphorylated NF-kappaB measured at 0.15 to 3000 nM after 48 hrs stimulated with goat F(ab') 2 anti-human IgM for 10 mins before harvesting measured by Western blot analysis.
The target is the same in assay [16]. The assay can be described thus: Inhibition of BCR signalling in human MINO cells assessed as downregulation of phosphorylated BTK measured at 0.15 to 3000 nM after 48 hrs stimulated with goat F(ab') 2 anti-human IgM for 10 mins before harvesting measured by Western blot analysis.

For the compound `C[C@H]1CN(C(=O)CNc2cccc3c2C(=O)N(C2CCC(=O)NC2=O)C3=O)CCN1c1ccc(Nc2cc(-c3ccnc(N4CCn5c(cc6c5CC(C)(C)C6)C4=O)c3CO)cn(C)c2=O)nc1` (stereo partly specified), the inhibition result in [1], in assay [2], in assay [3], in assay [4], in [5] and in assay [7] was “Active” each time. Moreover, the inhibition result in [8], in assay [9], in assay [10], in assay [11], in assay [12] and in [13] was “Active” in each case. Moreover, the inhibition result in assay [14], in [15] and in assay [16] was “Active” in each case. In addition, the inhibition result in [6] was “inactive”.
